Measured values published in ChEMBL document CHEMBL3751845, “Synthesis, molecular docking and biological evaluation of N,N-disubstituted 2-aminothiazolines as a new class of butyrylcholinesterase and carboxylesterase inhibitors” (Bioorg Med Chem, 2016).

Sequences of proteins named here, by UniProt entry; tags and fusion partners are left off. Residues count along the entry.
UniProt Q29550, 19-566 limits assumed: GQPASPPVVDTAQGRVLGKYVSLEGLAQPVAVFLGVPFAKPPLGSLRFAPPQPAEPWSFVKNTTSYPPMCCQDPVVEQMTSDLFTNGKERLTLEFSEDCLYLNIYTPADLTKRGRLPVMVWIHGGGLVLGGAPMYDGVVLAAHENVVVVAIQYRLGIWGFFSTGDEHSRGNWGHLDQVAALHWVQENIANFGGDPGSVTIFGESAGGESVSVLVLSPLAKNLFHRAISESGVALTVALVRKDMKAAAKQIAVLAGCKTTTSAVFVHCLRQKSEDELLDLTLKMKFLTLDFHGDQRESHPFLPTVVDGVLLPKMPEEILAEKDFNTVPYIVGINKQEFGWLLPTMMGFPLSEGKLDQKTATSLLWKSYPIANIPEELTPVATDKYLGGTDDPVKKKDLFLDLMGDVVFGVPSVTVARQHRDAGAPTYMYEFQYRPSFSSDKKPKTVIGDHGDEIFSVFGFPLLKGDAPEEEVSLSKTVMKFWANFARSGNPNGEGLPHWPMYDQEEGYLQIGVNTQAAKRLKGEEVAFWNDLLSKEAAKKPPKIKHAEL

target: Liver carboxylesterase (Sus scrofa, UniProt Q29550); test: Inhibition of porcine liver carboxylesterase using 4-nitrophenol acetate as substrate by spectrophotometric analysis

**Q.** With `ICC1CN=C(Nc2ccc3c(c2)OCCO3)S1` (centres undefined) as the molecule, how does the IC50 read?
**A.** Its IC50 is greater than 100 µM.

**Q.** Which IC50 does the source give for `BrCC1CN=C(Nc2ccccn2)S1` (centres undefined) here?
**A.** Its IC50 is 93 µM.

**Q.** With `Cc1cccc(NC2=NCC(CI)S2)n1.I` (centres undefined) as the molecule, how does the IC50 read?
**A.** The IC50 was “Not Active”.

**Q.** Which IC50 does the source give for `ICC1CN=C(NCc2ccccc2)S1` (centres undefined) here?
**A.** The IC50 was 17 µM.

**Q.** With `BrCC1CN=C(Nc2ccccc2)S1` (centres undefined) as the molecule, how does the IC50 read?
**A.** The IC50 was greater than 100 µM.

**Q.** For `ICC1CN=C(Nc2ccccc2)S1` (centres undefined), which IC50 is on record?
**A.** The IC50 was greater than 100 µM.

**Q.** Which IC50 does the source give for `I.NC1=NCC(CI)S1` (centres undefined) here?
**A.** Its IC50 is “Not Active”.

**Q.** `BrCC1CN=C(NCc2ccccc2)S1` (centres undefined) was tested. Which IC50 did it give?
**A.** Its IC50 is greater than 100 µM.

**Q.** With `NC1=NCC(CBr)S1` (centres undefined) as the molecule, how does the IC50 read?
**A.** Its IC50 is greater than 100 µM.
